Binding of CDR-mutated scFvs to a peptide of the spike HR2 region

Data: MIT Lincoln Laboratory AlphaSeq set, Engelhart et al. 2022, doi:10.1038/s41597-022-01779-4, as distributed in FLAb.

All variants were tested on one target, the spike HR2 peptide PDVDLGDISGINAS (SARS-CoV-2).

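Phage display of a naive human antibody library on the peptide gave the parent. Variants in AAYL52 differ from the parent at up to three CDR positions; double and triple changes were sampled at random. The scFvs were displayed on barcoded MATa yeast, the peptide on MATalpha yeast. Pairs that bind mate more often; barcode pairs of the diploids are counted by sequencing. Read counts were normalised to the haploid input and turned into Kd by a linear fit to BCL2-family pairs of known affinity, for each replicate. Each pool was mated in three replicate cultures.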

The variants keep the heavy chain, the linker and the frameworks of Ab-95 (scFv order VH, three GGGGS repeats, VL).
VH: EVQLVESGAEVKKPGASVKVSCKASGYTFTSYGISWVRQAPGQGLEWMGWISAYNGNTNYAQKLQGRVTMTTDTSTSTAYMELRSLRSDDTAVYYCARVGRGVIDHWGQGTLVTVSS
VL: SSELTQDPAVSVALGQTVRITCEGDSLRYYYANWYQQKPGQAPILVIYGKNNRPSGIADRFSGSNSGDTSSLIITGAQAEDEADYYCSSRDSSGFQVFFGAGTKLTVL

The parent's light chain CDRs are EGDSLRYYYAN, GKNNRPS, SSRDSSGFQVF; each variant's own CDRs replace them letter for letter. The read-out is the apparent dissociation constant on a log10 scale (nM): the lower, the stronger. A mean of the replicates is given; it leaves out those without a signal. An entry "not detected" has no value in the source: the pair was not observed among the diploids in any replicate. This suggests poor binding but is not conclusive. For reference, the parent read 2.31 as the reference entry and 2.25 as a member of this library. Three control strains display no target. For library AAYL52, 28% of the pairings with them gave a signal, with a median of 3.91 and one signal in twenty below 2.90, so weak values seen in few replicates may be background. The control count says in how many pairings with the empty strains this scFv gave a signal.

{"CDR-L1": "EGDLLRYYYAN", "CDR-L2": "GKNNRPS", "CDR-L3": "SSRDLTGFQVF", "mean, log10 nM": "3.95", "detected": "1 of 3", "signal with controls": "2 of 9"}
{"CDR-L1": "EGGSLLYYYAN", "CDR-L2": "GKNNRPS", "CDR-L3": "SSRDSSGFQVN", "mean, log10 nM": "3.20", "detected": "1 of 3", "signal with controls": "1 of 9"}
{"CDR-L1": "EGDSLKYYYAN", "CDR-L2": "GKNNRGS", "CDR-L3": "TSRDSSGFQVF", "mean, log10 nM": "3.47", "detected": "3 of 3", "signal with controls": "0 of 9"}
{"CDR-L1": "EGDSLRYRYAN", "CDR-L2": "GKNQRNS", "CDR-L3": "SSRDSSGFQVF", "mean, log10 nM": "1.19", "detected": "3 of 3", "signal with controls": "4 of 9"}
{"CDR-L1": "EGDSLRYYYAN", "CDR-L2": "GKNRRPS", "CDR-L3": "SSRDPSGFRVF", "mean, log10 nM": "4.01", "detected": "1 of 3", "signal with controls": "0 of 9"}
{"CDR-L1": "EGDSRRYYYAN", "CDR-L2": "GKNNRPS", "CDR-L3": "SSRFSSGFQVF", "mean, log10 nM": "not detected", "detected": "0 of 3", "signal with controls": "1 of 9"}
{"CDR-L1": "EGDSLRYYYAR", "CDR-L2": "GKNNRDS", "CDR-L3": "SYRDSSGFQVF", "mean, log10 nM": "4.43", "detected": "3 of 3", "signal with controls": "5 of 9"}
{"CDR-L1": "EGDSLRYYYAN", "CDR-L2": "GKNNRES", "CDR-L3": "SSRDSSIFQVF", "mean, log10 nM": "2.48", "detected": "3 of 3", "signal with controls": "4 of 9"}
{"CDR-L1": "EGDSLRYYYAN", "CDR-L2": "GCNNRPS", "CDR-L3": "SSRHSSWFQVF", "mean, log10 nM": "4.44", "detected": "3 of 3", "signal with controls": "4 of 9"}
{"CDR-L1": "EGDSLRYYYAN", "CDR-L2": "MKNNRHS", "CDR-L3": "TSRDSSGFQVF", "mean, log10 nM": "4.05", "detected": "2 of 3", "signal with controls": "4 of 9"}
{"CDR-L1": "EGDSLRYYYAP", "CDR-L2": "GKNSRPS", "CDR-L3": "SSRDSSGFQNF", "mean, log10 nM": "3.77", "detected": "3 of 3", "signal with controls": "3 of 9"}
{"CDR-L1": "EWDSLRYYYAN", "CDR-L2": "GKNNRPS", "CDR-L3": "SSRDSSGSQVF", "mean, log10 nM": "not detected", "detected": "0 of 3", "signal with controls": "0 of 9"}
{"CDR-L1": "EGDSLRYYYAN", "CDR-L2": "GKNNRPS", "CDR-L3": "SSRDSSGFSVW", "mean, log10 nM": "2.28", "detected": "3 of 3", "signal with controls": "6 of 9"}
{"CDR-L1": "EGDSLRYYYAN", "CDR-L2": "GKNFPPS", "CDR-L3": "SSSDSSGFQVF", "mean, log10 nM": "2.86", "detected": "1 of 3", "signal with controls": "2 of 9"}
{"CDR-L1": "EGDSLRYYYLN", "CDR-L2": "GKGNRPS", "CDR-L3": "SSRDSSGFGVF", "mean, log10 nM": "4.40", "detected": "3 of 3", "signal with controls": "5 of 9"}
{"CDR-L1": "EGDKLRYYYAN", "CDR-L2": "GKNNRPS", "CDR-L3": "SSRDSSGFRKF", "mean, log10 nM": "4.13", "detected": "1 of 3", "signal with controls": "2 of 9"}
{"CDR-L1": "EGISLRYEYAN", "CDR-L2": "GANNRPS", "CDR-L3": "SSRDSSGFQVF", "mean, log10 nM": "1.66", "detected": "3 of 3", "signal with controls": "5 of 9"}
{"CDR-L1": "EGDSLRYYYAN", "CDR-L2": "IKNNRPS", "CDR-L3": "SNRDSSGFQVP", "mean, log10 nM": "5.45", "detected": "2 of 3", "signal with controls": "3 of 9"}
{"CDR-L1": "EGDSIRYYYAN", "CDR-L2": "GKNNRPS", "CDR-L3": "SMRDSSGFQVI", "mean, log10 nM": "3.23", "detected": "2 of 3", "signal with controls": "0 of 9"}
{"CDR-L1": "EGDSLRYYYAN", "CDR-L2": "GPNNRPS", "CDR-L3": "SSRDESGFVVF", "mean, log10 nM": "2.29", "detected": "3 of 3", "signal with controls": "2 of 9"}
{"CDR-L1": "EGDSLRYYMAN", "CDR-L2": "GKNNRPI", "CDR-L3": "SSRDSSGDQVF", "mean, log10 nM": "3.56", "detected": "3 of 3", "signal with controls": "2 of 9"}
{"CDR-L1": "EGHSLRYNYSN", "CDR-L2": "GKNNRPS", "CDR-L3": "SSRDSSGFQVF", "mean, log10 nM": "2.82", "detected": "3 of 3", "signal with controls": "2 of 9"}
{"CDR-L1": "EGDSLQYYYAN", "CDR-L2": "GFNNRPS", "CDR-L3": "SSRMSSGFQVF", "mean, log10 nM": "4.16", "detected": "3 of 3", "signal with controls": "3 of 9"}
{"CDR-L1": "EADSLRYYYAS", "CDR-L2": "GKNNRPS", "CDR-L3": "SSRNSSGFQVF", "mean, log10 nM": "3.51", "detected": "3 of 3", "signal with controls": "4 of 9"}
{"CDR-L1": "EGDLLREYYAN", "CDR-L2": "GKNNRPS", "CDR-L3": "SSRDSSGFQVF", "mean, log10 nM": "4.28", "detected": "1 of 3", "signal with controls": "2 of 9"}
{"CDR-L1": "EGDRLRYYYAN", "CDR-L2": "GKNNRPS", "CDR-L3": "STRDSSGFQVF", "mean, log10 nM": "3.56", "detected": "1 of 3", "signal with controls": "2 of 9"}
{"CDR-L1": "EGDDLRYYYAN", "CDR-L2": "GKMNRPS", "CDR-L3": "SSRDSSGPQVF", "mean, log10 nM": "3.80", "detected": "2 of 3", "signal with controls": "2 of 9"}
{"CDR-L1": "EDDSLRSYYAN", "CDR-L2": "GKNNRPS", "CDR-L3": "SSRDPSGFQVF", "mean, log10 nM": "2.76", "detected": "3 of 3", "signal with controls": "5 of 9"}

A selection of 4 entries from above:

CDR-L1,CDR-L2,CDR-L3,"mean, log10 nM",detected,signal with controls
EGDLLRYYYAN,GKNNRPS,SSRDLTGFQVF,3.95,1 of 3,2 of 9
EGDSLRYRYAN,GKNQRNS,SSRDSSGFQVF,1.19,3 of 3,4 of 9
EGDLLREYYAN,GKNNRPS,SSRDSSGFQVF,4.28,1 of 3,2 of 9
EDDSLRSYYAN,GKNNRPS,SSRDPSGFQVF,2.76,3 of 3,5 of 9